Laboratory results reported in ChEMBL document CHEMBL5030506 (J Med Chem, 2021).

Protein sequences, listed by entry. Tags and fused reporters are not part of them.
UniProt Q96LA8, whole entry: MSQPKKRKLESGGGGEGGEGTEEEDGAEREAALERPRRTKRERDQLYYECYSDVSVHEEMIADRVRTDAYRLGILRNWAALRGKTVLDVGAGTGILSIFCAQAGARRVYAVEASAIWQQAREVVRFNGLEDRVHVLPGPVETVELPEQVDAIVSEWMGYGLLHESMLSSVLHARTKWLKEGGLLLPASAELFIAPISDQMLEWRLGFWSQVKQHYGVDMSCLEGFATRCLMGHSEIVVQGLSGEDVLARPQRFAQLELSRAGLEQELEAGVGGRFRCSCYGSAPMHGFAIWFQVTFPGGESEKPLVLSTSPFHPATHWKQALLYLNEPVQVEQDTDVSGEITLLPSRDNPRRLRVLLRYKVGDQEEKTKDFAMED

Tests used:
[1] = target: T1, Protein arginine N-methyltransferase 6 (Homo sapiens, UniProt Q96LA8)
[2] = target: T1, Protein arginine N-methyltransferase 6; remark: listed apart in the source
[3] = target: T1, Protein arginine N-methyltransferase 6; assay: biochemical

`Cc1cc(C)cc([C@@H]2c3cc(C)ccc3NC(=O)CN2C(=O)c2ccc(Br)s2)c1` gave an IC50 [1] of 900 nM, an IC50 [2] of 600 nM and an IC50 [3] of 77 nM.

In the case of `Cc1cc(C)cc(C2c3cc(C)ccc3NC(=O)CN2C(=O)c2ccc(Br)s2)c1` (racemic), the IC50 [3] is reported as 214 nM.
